Reference: patent US20250144067A1, “PERSONALIZED STARVATION THERAPY FOR CANCER” (Faeth Therapeutics, Inc., priority 2021, published 2025)
Counter-ions that a name gives are not always drawn. Like-named read-outs stand apart in the source and are kept apart here.

Tests used:
[1] = system: NCI-H292 lung cancer cells; test: FDA drug screening, complete media vs cholesterol-free media without statin (TABLE 1)
[2] = system: NCI-H292 lung cancer cells; test: FDA drug screening, complete media vs cholesterol-free media with simvastatin (TABLE 2)
[3] = NCI-H292 cells, complete media, FDA drug library screen
[4] = NCI-H292 cells, FDA drug library screen, complete media
[5] = NCI-H292 cells, FDA drug library screen, cholesterol-free media without statin
[6] = NCI-H292 cells, cholesterol-free media without statin

Compound: C[C@@H]1C[C@H]2[C@@H]3C[C@H](F)C4=CC(=O)C=C[C@]4(C)[C@@]3(F)[C@@H](O)C[C@]2(C)[C@@]1(O)C(=O)CO [Flumethasone]
- Cholesterol-free [1]: 1.224
- Complete [1]: 0.7145
- Difference [1]: −0.51
- Cholesterol-free media + simvastatin (0.04 μM) [2]: 0.5965
- Complete Media [2]: 0.7772
- Difference [2]: 0.18

Compound: CS(=O)(=O)c1ccc(C2=C(c3ccccc3)C(=O)OC2)cc1 [Rofecoxib]
- Complete [1, 3]: 1.149
- Complete Media [2, 4]: 1.147

Compound: C[N+](C)(C)C[C@H](O)CC(=O)[O-].Cl [L-Carnitine (hydrochloride)]
- Complete ([1]; NCI-H292 cells, complete media): 1.167

Compound: Nc1ncnc2c1ncn2[C@@H]1O[C@H](CO)[C@@H](O)[C@H]1O [Adenosine]
- Cholesterol-free [1, 5]: 0.9448

Compound: O=C1OCCN1/N=C/c1ccc([N+](=O)[O-])o1 [Furazolidone]
- Complete [1, 3]: 1.15

Compound: C[C@@H](O)[C@H]1C(=O)N2C(C(=O)OCOC(=O)C(C)(C)C)=C(SC3CN(C4=NCCS4)C3)[C@H](C)[C@H]12 [Tebipenem pivoxil]
- Cholesterol-free [1]: 1.001
- Complete [1]: 0.9986
- Difference [1]: 0.00
- Cholesterol-free media + simvastatin (0.04 μM) [2]: 0.7368
- Complete Media [2]: 0.8356
- Difference [2]: 0.10

Compound: Methylergometrine (maleate)
- Complete ([1]; NCI-H292 cells, complete media): 0.7152

Compound: O=C1c2ccccc2C(=O)C1c1ccccc1 [Phenindione]
- Complete [1, 3]: 1.152

Compound: Oc1c(I)cc(Cl)c2cccnc12 [Clioquinol]
- Complete [1, 3]: 1.175

Compound: COc1cc(C(C)=O)ccc1OCCCN1CCC(c2noc3cc(F)ccc23)CC1 [Iloperidone]
- Cholesterol-free ([1]; NCI-H292 cells, cholesterol-free media without statin, FDA drug library screen): 0.9455

Compound: N[C@@H](CS)C(=O)O [L-Cysteine]
- Cholesterol-free [1, 6]: 0.9453

Compound: OC(CNCC(O)C1CCc2cc(F)ccc2O1)C1CCc2cc(F)ccc2O1 (stereo not shown) [Nebivolol (hydrochloride)]
- Complete [1, 3]: 1.174

Compound: CS(=O)(=O)c1ccc(C(=O)Nc2ccc(Cl)c(-c3ccccn3)c2)c(Cl)c1 [Vismodegib]
- Complete [1, 3]: 1.174

Compound: O=C(O)Cc1ccccc1Nc1c(Cl)cccc1Cl [Diclofenac (diethylamine)]
- Complete [1, 3]: 1.145

Compound: N[C@@H]1CONC1=O [D-Cycloserine]
- Complete ([1]; NCI-H292 cells, complete media): 1.146

Compound: CCOCCn1c(C2CCN(CCc3ccc(C(C)(C)C(=O)O)cc3)CC2)nc2ccccc21 [Bilastine]
- Complete ([1]; NCI-H292 cells, complete media): 1.166

Compound: COc1ccc(/C=C/C(=O)Nc2ccccc2C(=O)O)cc1OC [trans-Tranilast]
- Cholesterol-free [1, 5]: 0.9454

Compound: CNCCCC1c2ccccc2C=Cc2ccccc21 [Protriptyline (hydrochloride)]
- Complete ([1]; NCI-H292 cells, complete media): 1.153

Compound: CC1CNc2c(cccc2S(=O)(=O)N[C@@H](CCCNC(=N)N)C(=O)N2CC[C@@H](C)C[C@@H]2C(=O)O)C1 (stereo partly shown) [Argatroban (monohydrate)]
- Complete [1, 4]: 1.155

Compound: CC(C)NCC(O)c1ccc(O)c(O)c1 (stereo not shown) [Isoprenaline (hydrochloride)]
- Complete ([1]; NCI-H292 cells in complete media): 1.173

Compound: O=C1CCc2cc(OCCCCc3nnnn3C3CCCCC3)ccc2N1 [Cilostazol]
- Complete ([1]; NCI-H292 cells, complete media): 1.174

Compound: CC(C)NCC(O)COc1ccc(CC(N)=O)cc1 (stereo not shown) [Atenolol]
- Complete ([1]; NCI-H292 cells, complete media): 1.168

Compound: CCOc1ccc(Cc2cc([C@@H]3O[C@H](CO)[C@@H](O)[C@H](O)[C@H]3O)ccc2Cl)cc1
- Cholesterol-free [1, 6]: 0.9446
